Results reported in patent EP3939964B1, “COMBINATIONS FOR INHIBITING NHE-MEDIATED ANTIPORT IN THE TREATMENT OF DISORDERS ASSOCIATED WITH FLUID RETENTION OR SALT OVERLOAD AND GASTROINTESTINAL TRACT DISORDERS” (dated 2026).

Assays:
[1] = test system: Normal female Sprague Dawley rats; assay: Pharmacodynamic model: effect of test compounds on fecal water content; conditions: one way ANOVA with Dunnett post tests, control vs treated
[2] = Determination of compound remaining in feces; conditions: oral 0.1 mg/kg, three rats
[3] = test system: rats; assay: Pharmacodynamic model: addition of a fluid absorbing polymer (1% Psyllium) to chow; conditions: with 1% Psyllium in diet; ability of test compound not impacted
[4] = test system: female wistar rats; assay: Acute stress-induced visceral hypersensitivity (partial restraint stress, colorectal distension); conditions: oral 10 mg/kg, 1 h before CRD, at 45 and 60 mm Hg, p < 0.05, Figure 6
[5] = test system: rat NHE-3; assay: Cell-based assay of NHE-3 activity (pH sensitive dye method, BCECF); conditions: OK cells with rat NHE-3 gene; 0-30 uM test compound; 5 uM EIPA; average 3-6 replicates
[6] = test system: rats; assay: Pharmacodynamic model: effect of test compounds on urinary sodium levels; conditions: increasing doses, corrected for sodium intake, Figures 3A and 3B
[7] = test system: rats; assay: Pharmacodynamic model: dose dependent effect of test compound on fecal water content; conditions: increasing doses, Figure 4

Row | Compound | Significant? [1] | also measured
1 | CN1Cc2c(Cl)cc(Cl)cc2[C@H](c2cccc(S(=O)(=O)NCCOCCOCCNC(=O)NCCCCNC(=O)NCCOCCOCCNS(=O)(=O)c3cccc([C@@H]4CN(C)Cc5c(Cl)cc(Cl)cc54)c3)c2)C1.Cl.Cl (single isomer, unassigned) | Y (Results are significant if p < 0.05) | recovery in 72-hour fecal samples (summary in words) [2]: near quantitative recovery
2 | CN1Cc2c(Cl)cc(Cl)cc2[C@H](c2cccc(S(=O)(=O)NCCOCCOCCOCCNC(=O)C(O)C(O)C(=O)NCCOCCOCCOCCNS(=O)(=O)c3cccc([C@@H]4CN(C)Cc5c(Cl)cc(Cl)cc54)c3)c2)C1 (single isomer, unassigned) | Y (Results are significant if p < 0.05) | fecal water content [3]: increase fecal water content; urinary sodium [3]: decrease urinary sodium; visceral hypersensitivity to distension (number of abdominal contractions) [4]: reduces visceral hypersensitivity to distension
3 | N1,N4-bis(2-(2-(2-(2-(4-(6,8-dichloro-2-methyl-1,2,3,4-tetrahydroisoquinolin-4-yl)phenylsulfonamido)ethoxy)ethoxy)ethoxy)ethyl)-2,3-dihydroxysuccinamide | – | rat NHE-3 Average pIC50 [5]: >7
4 | CN1Cc2c(Cl)cc(Cl)cc2C(c2cccc(S(=O)(=O)NCCOCCOCCNC(=O)NCCCCNC(=O)NCCOCCOCCNS(=O)(=O)c3cccc(C4CN(C)Cc5c(Cl)cc(Cl)cc54)c3)c2)C1 (centres unmarked) | Y (Results are significant if p < 0.05) | –
5 | CN1Cc2c(Cl)cc(Cl)cc2C(c2cccc(S(=O)(=O)NCCOCCOCCNC(=O)c3ccc(C(=O)NCCOCCOCCNS(=O)(=O)c4cccc(C5CN(C)Cc6c(Cl)cc(Cl)cc65)c4)cc3)c2)C1 (centres unmarked) | Y (Results are significant if p < 0.05) | –
6 | CN1Cc2c(Cl)cc(Cl)cc2[C@H](c2cccc(S(=O)(=O)NCCOCCOCCOCCNC(=O)NCCCCNC(=O)NCCOCCOCCOCCNS(=O)(=O)c3cccc([C@@H]4CN(C)Cc5c(Cl)cc(Cl)cc54)c3)c2)C1 (single isomer, unassigned) | Y (Results are significant if p < 0.05) | amount of sodium excreted in the urine [6]: diminishes significantly and dose dependently
7 | N1,N4-bis(2-(2-(2-(2-(3-(6,8-dichloro-2-methyl-1,2,3,4-tetrahydroisoquinolin-4-yl)phenylsulfonamido)ethoxy)ethoxy)ethoxy)ethyl)-2,3-dihydroxysuccinamide | – | fecal water content [7]: increased significantly and dose dependently
8 | CN1Cc2c(Cl)cc(Cl)cc2C(c2ccc(S(=O)(=O)NCCOCCOCCNC(=O)NCCCCNC(=O)NCCOCCOCCNS(=O)(=O)c3ccc(C4CN(C)Cc5c(Cl)cc(Cl)cc54)cc3)cc2)C1 (centres unmarked) | Y (Results are significant if p < 0.05) | –
9 | CN1Cc2c(Cl)cc(Cl)cc2[C@H](c2ccc(S(=O)(=O)NCCOCCOCCOCCNC(=O)NCCOCCOCCOCCNS(=O)(=O)c3ccc([C@@H]4CN(C)Cc5c(Cl)cc(Cl)cc54)cc3)cc2)C1 (single isomer, unassigned) | Y (Results are significant if p < 0.05) | –
